# According to patent US4299813A, “Assay kit and method” (priority 1979, dated 1981):
# Test system: muscarinic cholinergic receptor
# Test: Muscarinic cholinergic radioreceptor assay ([3H] QNB competition, serum antidepressant levels)
# Type: binding, rat (Sprague-Dawley)
# Conditions: Standard F, 0.04 μM amitriptyline, Table II
compound,measurement,value
CN(C)CCC=C1c2ccccc2CCc2ccccc21 [amitriptyline],CPM,10780 CPM
